The results in this text go back to patent US7223792B2, “Cytotoxic annonaceous acetogenins from Annona muricata” (Advpharma Inc., priority 2001, dated 2007).

This data set concerns Hep G2. The experiment in a line: three days cytotoxicity bioassay against Hep G2. Particulars: human hepatoma cell line Hep G2, three days bioassay.

Take “Corossolin [Corossolin (11), reference compound]”: the “Cytotoxicity IC50 Hep G2” value worked out at 0.353 µg/mL.
